{"source": "patent US9493464B2", "about": "“Wee1 degradation inhibitors” (The Scripps Research Institute, priority 2012, dated 2016)", "key": {"296 kinases": {"tested_on": "296 kinases", "experiment": "Kinase profile of 296 kinases (Reaction Biology Corporation)", "assay_type": "biochemical"}, "[1]": {"tested_on": "cerebellar granule cell progenitors (GCPs)", "experiment": "In vitro proliferation of cerebellar granule cell progenitors (3H-thymidine uptake)", "assay_type": "cell-based, mouse", "conditions": "SR-1277 versus SR-653234", "experimental": "GCPs were incubated with DMSO, 5 μM D4476 (known CK1δ and CK1ε inhibitor), or 50 μM D4476 and processed for ^3H-thymidine incorporation after 24 hours. A representative experiment performed in triplicate is shown."}}, "data": [{"smiles": "O=[N+]([O-])c1cccc2[nH]c(CNc3nc(N4CCOCC4)nc4c3ncn4-c3ccsc3)nc12", "note": "[SR-1277]", "values": [{"measurement": "selectivity among 296 kinases", "setting": "296 kinases", "value": "highly selective for casein kinase"}, {"measurement": "potency as inhibitor of GCP proliferation relative to SR-653234", "setting": "[1]", "value": "5-10 times"}]}]}
